AlphaSeq binding of Ab-14 light chain variants to a spike HR2 peptide

The measurements come from Li et al. 2023 (doi:10.1038/s41467-023-39022-2) through the FLAb antibody collection.

Antigen: PDVDLGDISGINAS, a 14-residue peptide of the SARS-CoV-2 spike HR2 region.

Each scFv is VH, three GGGGS repeats, VL, as in the parent Ab-14, and differs from it in the CDRs of the light chain only.
VH: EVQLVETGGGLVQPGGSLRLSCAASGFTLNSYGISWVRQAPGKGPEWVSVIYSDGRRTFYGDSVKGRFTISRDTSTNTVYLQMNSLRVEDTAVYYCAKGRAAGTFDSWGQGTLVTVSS
VL: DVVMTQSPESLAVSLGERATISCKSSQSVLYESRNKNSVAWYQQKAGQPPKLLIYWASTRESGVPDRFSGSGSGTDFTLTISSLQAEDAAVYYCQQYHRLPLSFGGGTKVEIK

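The parent was found by panning a naive human phage display library on the peptide. This is the validation round: designs drawn from the data on random variants, tested in the same kind of assay. Their group label is 14L_GP_Gen (GP: Gaussian process model; Gen: genetic algorithm; a sequence that several methods proposed may carry one label only). The scFvs were displayed on barcoded MATa yeast, the peptide on MATalpha yeast. Binding brings cells together so that they mate, and sequencing counts the barcode pairs among the diploids. Read counts were normalised to the haploid input and turned into Kd by a linear fit to BCL2-family pairs of known affinity, for each replicate. There are six technical replicates.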

Positions count from residue 1 of the parent VL; S25L puts L in place of S.
Values are log10 of the apparent Kd in nM; lower means stronger binding.
A mean of the replicates is given; it leaves out those without a signal.
"ND" marks a missing value. The strain was present, yet no cells mated with the target were sequenced in that replicate, which points to weak or no binding.

changes	log10 Kd, replicates	log10 Kd (nM), mean	empty controls
S25L+W56N+T59M	0.16 / 0.02 / -0.02 / -0.16 / 0.27 / 0.23	0.08	2/18 (1.79)
S25L+V29F+W56E+E61L	0.23 / 0.29 / -0.32 / -0.28 / 0.04 / 0.13	0.01	0/18
S25V+S33E+S38N+W56N	1.40 / 1.17 / 0.13 / 0.14 / ND / 1.54	0.88	0/18
S25L+S26H+W56G	-0.31 / -0.09 / -0.59 / -0.18 / -0.37 / -0.04	-0.26	1/18 (2.67)
S25L+S26T+W56N+T59Q	0.29 / 0.19 / 0.33 / 0.06 / 0.44 / 0.52	0.31	1/18 (3.43)
S25L+V29M+W56N+T59E	-0.14 / -0.20 / -0.31 / -0.43 / -0.28 / -0.16	-0.25	7/18 (3.12)
S25L+S26M+N35M+W56N+T59Q	0.14 / 0.10 / 0.10 / -0.03 / 0.08 / 0.26	0.11	2/18 (2.72)
S25L+S26Q+V29W+S38N+W56H	0.28 / 0.25 / 0.02 / -0.06 / 0.20 / 0.25	0.16	2/18 (2.22)
S25L+S26E+V29D+W56N	0.60 / 0.50 / 1.03 / 0.86 / 0.87 / 0.77	0.77	1/18 (2.93)
S25L+V29Y+L30E+W56N+E61L	-0.05 / -0.21 / -0.15 / -0.31 / -0.27 / -0.04	-0.17	2/18 (3.92)
S25L+N35C+W56N+E61M	0.32 / 0.41 / -0.10 / 0.46 / -0.15 / 0.35	0.22	1/18 (2.73)
S25L+S26Y+V29Q+L30G+W56N	0.22 / 0.14 / -0.06 / -0.20 / 0.11 / 0.13	0.06	2/18 (2.89)
S25V+V29E+W56H	0.23 / -0.33 / -0.02 / 0.04 / -0.28 / -0.04	-0.07	1/18 (1.50)
S25L+S26D+W56Q	-0.01 / -0.15 / -0.18 / -0.46 / -0.19 / -0.04	-0.17	1/18 (4.81)
S25M+W56N+E61M	0.84 / 0.43 / 0.34 / 0.18 / 0.34 / 0.44	0.43	3/18 (2.36)
S25L+W56S+T59Q	ND / ND / ND / ND / ND / ND	ND	0/18
S25L+V29E+W56N+E61M+Q96D	-0.19 / -0.02 / -0.08 / -0.25 / -0.22 / -0.11	-0.15	0/18
S25L+S26Q+V29Q+W56S+T59Q	-0.29 / -0.20 / -0.21 / 0.02 / 0.16 / 0.26	-0.04	0/18
S25L+S26P+V29E+S38A+W56N+T59Q	-0.07 / -0.30 / -0.16 / -0.57 / -0.32 / -0.38	-0.30	1/18 (2.60)
S25L+S26Y+L30P+W56N+T59Q	0.87 / -0.01 / 0.19 / 0.48 / -0.05 / 0.36	0.31	0/18
S25L+S26P+V29M+S38A+W56N+T59Q	-0.03 / -0.33 / -0.79 / -0.40 / -0.53 / -0.58	-0.44	0/18
S25L+W56N+E61F	0.48 / 0.27 / 0.11 / -0.17 / 0.06 / 0.23	0.16	0/18
S25L+V29W+N35W+W56N+T59Q	0.55 / 0.47 / 0.15 / -0.24 / -0.28 / -0.02	0.11	0/18
S25L+S26Q+L30W+W56E	-0.08 / -0.15 / -0.29 / -0.25 / -0.29 / -0.10	-0.19	1/18 (2.81)
S25L+V29M+S38N+W56N+T59Q	-0.39 / -0.50 / -0.55 / -0.65 / -0.55 / -0.41	-0.51	2/18 (2.52)
S25L+V29Y+W56G	0.16 / 0.02 / 0.12 / -0.16 / 0.06 / 0.13	0.05	3/18 (2.97)
S25V+W56D+Q96D	-0.31 / -0.32 / -0.37 / -0.45 / -0.41 / -0.23	-0.35	2/18 (3.95)
S25L+S26P+W56H+E61C	0.80 / 0.77 / 0.90 / 0.41 / 0.85 / 1.08	0.80	0/18
S25L+V29M+W56E+T59Q	-0.47 / -0.44 / -0.72 / -0.72 / -0.55 / -0.48	-0.56	1/18 (2.24)
S25L+L30D+W56N+E61L	0.19 / 0.04 / 0.04 / 0.14 / 0.10 / 0.27	0.13	0/18
S25L+K36P+W56N+S62M	0.04 / -0.28 / -0.24 / -0.20 / 0.00 / 0.05	-0.11	1/18 (2.55)
S25M+S38N+W56G	-0.50 / -0.68 / -0.36 / -0.69 / -0.42 / -0.58	-0.54	0/18
S25L+V29H+S38N+W56G	-0.42 / -0.40 / -0.44 / -0.43 / -0.49 / -0.25	-0.41	3/18 (2.99)
S25L+K36S+W56N	0.06 / -0.29 / -0.17 / -0.11 / -0.22 / -0.13	-0.14	0/18
S25V+S26Y+V29W+W56N+T59Q	0.13 / -0.20 / 0.02 / -0.16 / 0.01 / 0.16	-0.01	0/18
S25L+V29E+N35M+W56N+T59Q	0.23 / 0.07 / -0.17 / -0.10 / -0.02 / 0.30	0.05	1/18 (2.94)
S25F+S26Y+W56G	0.08 / -0.11 / -0.40 / -0.34 / -0.39 / -0.20	-0.23	0/18
S25L+N35M+W56N+T59Q	0.09 / -0.46 / -0.36 / -0.54 / -0.78 / -0.47	-0.42	0/18
K24H+S25L+V29M+W56N	-0.36 / -0.36 / -0.45 / -0.53 / -0.32 / -0.44	-0.41	2/18 (2.19)
K24H+S25L+W56N+S62V	-0.11 / 0.01 / -0.30 / -0.29 / -0.24 / 0.04	-0.15	1/18 (2.59)
S25L+S26E+V29A+W56N	0.16 / -0.19 / -0.58 / -0.35 / -0.24 / -0.37	-0.26	0/18
S25L+V29W+K36S+W56N+S62D	0.18 / 0.24 / 0.08 / -0.13 / 0.13 / 0.07	0.10	0/18
S25L+W56D+S62V	0.84 / 0.85 / 1.28 / 0.69 / 1.04 / 1.43	1.02	0/18
S25L+S26Q+V29C+W56N+E61L	0.08 / -0.35 / -0.08 / -0.16 / -0.18 / 0.05	-0.11	2/18 (2.01)
S25V+S33E+W56D	0.75 / 0.14 / 0.33 / 0.54 / 0.34 / 0.54	0.44	1/18 (1.29)
S25L+S26E+S38A+W56N	0.01 / -0.38 / -0.24 / -0.18 / -0.15 / 0.17	-0.13	0/18

The authors averaged sequences with at least three values out of six and counted those with two or fewer as poor binders.
Of ten entries with the parent sequence, four were seen in most replicates (averages 0.34 to 2.37), three in one and three in none, so single entries are noisy.
The range of this assay differs from that of the first round, and the authors advise against merging the two.
As a blank, each scFv also met three strains without target: over all light chain designs, 4% of these pairings were detected, typically at 2.64 and seldom below 1.59. Also given: how often the same scFv was detected with the empty control strains, with their mean in brackets.